# The list shows a part of the results, in another mix than the full data. Active and inactive are the calls of the source.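 The calls were made as follows: active = activation factor of 2 or more at 20 µM, a signal rise over negative controls twice the positive control's; inactive = the rest.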
# Test system: alkaline phosphatase, intestinal [Bos taurus]
# Assay: bovine intestinal alkaline phosphatase activators, primary screen, biochemical, bovine IAP, CDP-star luminescence (AID 1016)
# Details: purified bovine IAP, 30 min, at 20 µM, hits give high values, fold of DMSO-control signal, blank-subtracted
row,SMILES,activation factor
1,O=C(COc1ccccc1)OC1CN2CCC1CC2 (stereo not given),inactive: 0.9
2,O=P(Nc1ccccn1)(c1cccc2ccccc12)c1cccc2ccccc12,inactive: 0.9
3,Cc1cc(SC(NC=O)C(Cl)(Cl)Cl)ncn1 (stereo not given),inactive: 1.3
4,ClCCSc1nnc(-c2cccnc2)o1,inactive: 1.1
5,Cc1ccc(NCCc2c([N+](=O)[O-])cc([N+](=O)[O-])cc2[N+](=O)[O-])cc1,inactive: 0.9
6,COc1cc(C2NCCC3(OCCO3)C2(C)C)cc(OC)c1OC (stereo not given),inactive: 0.7
7,COc1cc(C(=O)NCC2(N3CCOCC3)CCCCC2)cc(Cl)c1OC(C)C,inactive: 1.2
8,Cc1cccc(OCC(=O)OC2CN3CCC2CC3)c1 (stereo not given),inactive: 0.9
9,CCOP1(=S)c2c(C)nn(CCC#N)c2N=C(c2ccc(F)cc2)N1C (stereo not given),inactive: 1.1
10,O=[N+]([O-])c1ccc2c(c1)nnn2O,inactive: 0.9
11,O=P(Nc1nccs1)(c1ccccc1)c1nc2ccccc2s1 (stereo not given),inactive: 1.1
12,CCOP1(=S)c2c(C)nn(CCC#N)c2N=C(c2ccccc2F)N1C (stereo not given),inactive: 0.9
13,O=P1(Nc2ccc(Br)cn2)COc2ccccc2OC1,inactive: 0.8
14,Cc1ccc(OCC(=O)OC2CN3CCC2CC3)cc1 (stereo not given),inactive: 0.9
15,CC1CCC(C(C)C)C(OP(=O)(Nc2ccccn2)c2ccccc2)C1 (stereo not given),inactive: 1.3
16,CC(C)/C=N\N=C(\N)N[N+](=O)[O-],inactive: 1.1
17,CN(C(=O)Cc1ccc(Cl)c(Cl)c1)[C@@H]1CCCC[C@H]1N1CCCC1,inactive: 1.1
18,Clc1n[nH]nc1-c1nn[nH][15n]1,inactive: 0.9
19,c1nnnn1CCn1cnnn1,inactive: 0.8
20,C(Cc1nn[nH]n1)Cc1nn[nH]n1,inactive: 0.9

row,SMILES,activation factor
1,O=P(Nc1ccccn1)(c1ccc(Br)cc1)c1ccc(Br)cc1,inactive: 1.1
2,COC(=O)c1cc2c(s1)N=C(c1ccccc1)N(C)P2(=O)N1CCOCC1 (stereo not given),inactive: 1.1
3,O=c1c2cc([N+](=O)[O-])ccc2[nH]c2c([N+](=O)[O-])cc([N+](=O)[O-])cc12,inactive: 0.8
4,CCOC(=O)NC(Sc1ccccc1)C(Cl)(Cl)Cl (stereo not given),inactive: 0.8
5,c1ccc(-c2nn[nH]n2)c(-c2nn[nH]n2)c1,inactive: 1.1
6,CCNC(=S)/N=C(\N)N[N+](=O)[O-],inactive: 1.1
7,CCOc1ccc(C2=NCC(CBr)S2)cc1 (stereo not given),inactive: 1.1
8,CC(C)(C)C(=O)NC(Sc1ccccc1)C(Cl)(Cl)Cl (stereo not given),inactive: 1.1
9,Cc1c2non([O-])c-2c(C)[n+](=O)[n+]1[O-],inactive: 1.1
10,Oc1ccccc1CNc1ccccn1,inactive: 0.8
11,CC(C)CC(=O)NC(Sc1ccc(Cl)cc1)C(Cl)(Cl)Cl (stereo not given),inactive: 1.1
12,NC(=O)c1cc([N+](=O)[O-])cc([N+](=O)[O-])c1N,inactive: 1.1
13,Clc1ccc(Cl)c(NC2=NCC(CBr)S2)c1 (stereo not given),inactive: 1.2
14,COc1ccccc1OP(=O)(Nc1ccc(C)cn1)Oc1ccccc1OC,inactive: 0.9
15,CCN(N=Nc1nonc1N)c1nonc1N,inactive: 0.8
16,CCOP(=O)(Nc1ccccc1)OCC,inactive: 0.9
17,COc1ccc(C2=NCC(CBr)S2)cc1 (stereo not given),inactive: 0.8
18,CCc1nc2c(n1)c1c(non1O)c1c2no[n+]1[O-],inactive: 0.9
19,O=[N+]([O-])c1cc([N+](=O)[O-])c(CCNc2ccccc2)c([N+](=O)[O-])c1,inactive: 0.8
20,O=[N+]([O-])c1cccc2n[nH]nc12,inactive: 0.8

# Source: PubChem BioAssay AID1016 (Sanford-Burnham Center for Chemical Genomics, 2008)
